Laboratory results as given in patent US20170173180A1, “CANCER IMMUNOTHERAPY COMPOSITIONS AND METHODS” (THE REGENTS OF THE UNIVERSITY OF MICHIGAN, priority 2014, published 2017).

Test system: 4T1 spontaneous pulmonary metastases
Assay: Adoptive TDLN B cell therapy of 4T1 cancer, first model (WT vs IL-10−/− B cells), enumeration of pulmonary metastatic nodules
Format: in vivo, BALB/c mice
Details: IL-2 alone, i.p.
Procedure: In the first model using IL-10^−/− TDLN B cells, healthy BALB/c mice were inoculated with 5×10^4 4 T1 cells into the mammary fat pad to induce spontaneous pulmonary metastases. Fourteen days after tumor inoculation, the tumor-bearing mice were treated with tail vein injection of activated WT or IL-10^−/− 4T1 TDLN B cells. Commencing on the day of the effector B cell transfer, intraperitoneal (i.p.) injections of IL-2 (40,000 IU) (Novartis, Emeryville, Calif.) were administered in 0.5 ml of PBS and continued twice daily for 8 doses. About 2 weeks after B cell transfer, all mice were sacrificed and lungs were harvested for enumeration of spontaneous pulmonary metastatic nodules as previously described (Li, Q., et al., J. Immunol. 2009. 183: 3195-3203; Li, Q., et al., Clin. Cancer Res. 2011. 17: 4987-4995).

IL-2: IL-2 (Novartis) given i.p., 40,000 IU twice daily for 8 doses
reduction in pulmonary metastases compared with PBS-treated controls: modest, but not significant reduction
